{"sequences": {"note": "Protein sequences, listed by entry. Tags and fused reporters are not part of them.", "UniProt P03372, whole entry": "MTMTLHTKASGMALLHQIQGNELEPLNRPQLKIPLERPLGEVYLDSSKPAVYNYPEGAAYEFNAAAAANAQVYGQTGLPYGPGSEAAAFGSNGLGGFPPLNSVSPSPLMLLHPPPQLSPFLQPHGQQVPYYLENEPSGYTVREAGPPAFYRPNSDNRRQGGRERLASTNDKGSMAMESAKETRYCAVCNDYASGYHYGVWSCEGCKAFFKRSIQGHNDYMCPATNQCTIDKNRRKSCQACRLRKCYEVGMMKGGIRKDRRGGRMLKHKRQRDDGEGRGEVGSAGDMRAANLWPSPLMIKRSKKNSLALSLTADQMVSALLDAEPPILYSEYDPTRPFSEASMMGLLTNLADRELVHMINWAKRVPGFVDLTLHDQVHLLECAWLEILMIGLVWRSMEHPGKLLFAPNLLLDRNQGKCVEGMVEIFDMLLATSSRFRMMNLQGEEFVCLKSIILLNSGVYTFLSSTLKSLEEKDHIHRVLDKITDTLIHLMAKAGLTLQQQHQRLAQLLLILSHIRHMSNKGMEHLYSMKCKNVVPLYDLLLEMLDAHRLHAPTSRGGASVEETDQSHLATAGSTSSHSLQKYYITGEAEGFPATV"}, "source": "patent US10400006B2", "about": "“Estrogen receptor modulators” (THE REGENTS OF THE UNIVERSITY OF CALIFORNIA, priority 2014, dated 2019)", "origin": "cited, not measured here", "target": "ER (Homo sapiens, UniProt P03372)", "conditions": "FES-PET studies; cited from earlier work"}
{"molecule": "C[C@]12CC[C@@H]3c4ccc(O)cc4C[C@@H](CCCCCCCCC[S+]([O-])CCCC(F)(F)C(F)(F)F)[C@H]3[C@@H]1CC[C@@H]2O", "note": "(stereo partly shown) [fulvestrant]", "values": [{"measurement": "patients with significant residual ER availability in tumors during therapy", "result": 38, "unit": "%"}]}
